Data published in ChEMBL document CHEMBL4368908, “Inhibition of Inositol Polyphosphate Kinases by Quercetin and Related Flavonoids: A Structure-Activity Analysis” (J Med Chem, 2019).

Key:
[1] = target: T1, Inositol hexakisphosphate kinase 2 (Homo sapiens, UniProt Q9UHH9); assay: Inhibition of human IP6K2 using insP6 as substrate preincubated for 15 mins followed by substrate and measured after 30 mins by TR-FRET assay
T1 sequence (Q9UHH9 whole entry): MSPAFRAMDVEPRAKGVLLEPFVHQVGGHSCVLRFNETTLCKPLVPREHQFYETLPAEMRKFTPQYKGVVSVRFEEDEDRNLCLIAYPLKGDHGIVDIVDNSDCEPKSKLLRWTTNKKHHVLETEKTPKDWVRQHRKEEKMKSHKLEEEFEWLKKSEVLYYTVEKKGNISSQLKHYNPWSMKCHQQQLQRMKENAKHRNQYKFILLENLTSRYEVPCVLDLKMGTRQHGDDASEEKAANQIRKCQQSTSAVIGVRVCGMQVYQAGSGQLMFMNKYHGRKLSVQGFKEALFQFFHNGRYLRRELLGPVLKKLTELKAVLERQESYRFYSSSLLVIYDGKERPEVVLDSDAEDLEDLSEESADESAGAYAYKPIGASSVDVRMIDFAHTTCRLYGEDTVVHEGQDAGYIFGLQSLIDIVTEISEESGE

Homo sapiens = species on record: Homo sapiens; assay: Selectivity ratio of IC50 for human IPMK to IC50 for human IP6K2
How it was run: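 Recombinant human IPMK (12 nM) or IP6K2 (400 nM) equilibrated 15 min at room temperature with compound (10-point, 0.005–100 μM, 1% DMSO) in 50 mM HEPES pH 7.5, 0.01% Brij-35, 10 mM MgCl₂, 1 mM EGTA. Reaction started with 10 μM ATP plus 10 μM InsP₃ (IPMK) or InsP₆ (IP6K2), run 30 min. ADP detected by Adapta TR-FRET. IC50 from 4-parameter fit.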

Question: Which results are given for `O=c1c(O)c(-c2ccc(O)c(O)c2)oc2cc(O)cc(O)c12` [QUERCETIN]?
Answer: IC50 [1]: 700 nM; Ratio IC50 (Homo sapiens): 3.3
